Experimental data: patent US20200123104A1, “PHARMACEUTICAL AGENT THAT BINDS THE P2X7 RECEPTOR” (Indiana University Research and Technology Corporation, priority 2017, published 2020)

The chains behind the UniProt entries cited, without tags or fusion partners. Where a name states a change or a piece, a line headed by the entry shows the natural chain unless it says otherwise.
UniProt Q99572: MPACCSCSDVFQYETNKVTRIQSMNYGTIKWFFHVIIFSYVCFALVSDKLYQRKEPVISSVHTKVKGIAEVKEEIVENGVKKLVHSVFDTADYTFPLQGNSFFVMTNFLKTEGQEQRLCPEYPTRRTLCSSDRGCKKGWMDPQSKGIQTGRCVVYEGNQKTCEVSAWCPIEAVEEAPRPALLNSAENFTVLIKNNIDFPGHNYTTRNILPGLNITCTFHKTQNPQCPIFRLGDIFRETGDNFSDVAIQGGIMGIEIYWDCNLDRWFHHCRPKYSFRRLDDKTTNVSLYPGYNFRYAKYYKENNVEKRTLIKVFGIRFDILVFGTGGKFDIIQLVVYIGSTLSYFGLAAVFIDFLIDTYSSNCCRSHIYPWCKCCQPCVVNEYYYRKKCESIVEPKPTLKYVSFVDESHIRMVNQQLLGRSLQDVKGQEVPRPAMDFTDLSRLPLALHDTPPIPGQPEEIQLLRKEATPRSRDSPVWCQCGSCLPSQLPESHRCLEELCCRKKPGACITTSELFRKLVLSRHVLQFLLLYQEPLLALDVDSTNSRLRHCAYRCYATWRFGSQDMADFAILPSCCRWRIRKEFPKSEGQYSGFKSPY

Target: P2X7 receptor (Homo sapiens, UniProt Q99572)
Experiment: Competitive binding with [11C]GSK1482160 as reference tracer, membrane homogenate of HEK cells transfected with the human P2X7 gene
Set-up: host or cells: HEK (human embryonic kidney) cells, membrane homogenate
Conditions: HEK-hP2X7 membrane homogenate, [11C]GSK1482160 reference tracer

`O=C(NCc1cccc(C(F)(F)F)c1Cl)[C@@H]1CCC(=O)N1CCF` [IUR-1601, (S)—N-(2-chloro-3-(trifluoromethyl)benzyl)-1-(2-fluoroethyl)-5-oxopyrrolidine-2-carboxamide] gave an IC50 of 7.17 nM and a Ki of 4.31 ± 0.92 nM.
